Reference: ChEMBL document CHEMBL2021911 (Bioorg Med Chem Lett, 2012)

By UniProt entry, the sequences of proteins in these tests, tags left out.
UniProt P20309, whole entry, looked up: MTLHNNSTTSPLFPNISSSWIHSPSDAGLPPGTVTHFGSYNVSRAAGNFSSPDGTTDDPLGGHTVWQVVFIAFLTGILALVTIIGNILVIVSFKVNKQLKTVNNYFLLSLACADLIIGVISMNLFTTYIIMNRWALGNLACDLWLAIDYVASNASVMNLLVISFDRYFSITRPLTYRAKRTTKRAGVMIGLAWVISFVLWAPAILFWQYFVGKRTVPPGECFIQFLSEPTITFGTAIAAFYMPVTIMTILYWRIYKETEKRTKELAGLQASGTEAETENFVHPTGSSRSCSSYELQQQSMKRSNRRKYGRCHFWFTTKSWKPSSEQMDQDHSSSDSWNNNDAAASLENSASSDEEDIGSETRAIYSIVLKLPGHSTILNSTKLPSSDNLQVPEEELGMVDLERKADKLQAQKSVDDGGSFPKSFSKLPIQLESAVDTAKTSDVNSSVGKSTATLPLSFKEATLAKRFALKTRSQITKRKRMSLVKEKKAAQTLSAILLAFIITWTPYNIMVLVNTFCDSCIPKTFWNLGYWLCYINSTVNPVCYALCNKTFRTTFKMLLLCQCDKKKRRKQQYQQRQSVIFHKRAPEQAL

Biological target: Muscarinic acetylcholine receptor M3 (Homo sapiens, UniProt P20309)
Assay: Antagonist activity at human muscarinic M3 receptor by calcium mobilization assay
Format: functional

Row | Compound | Activity
1 | CCOC(=O)N1C2CCC1CC(N1CCC[C@@H](NC(=O)c3ccccc3)C1)C2 (mixture of isomers) | inactive
2 | CCOC(=O)N1CCC(NCCNC(=O)c2ccccc2C)CC1 | inactive

The source made the active and inactive calls. No cut-off for these calls is given here.
